Patent US7510699B2, “In vivo fluorescence sensors, systems, and related methods operating in conjunction with fluorescent analytes” (Sicel Technologies, Inc., priority 2003, dated 2009)

Assays:
[1] = test system: BT474 tumors; conditions: mouse, in vivo
[2] = mouse, in vivo
[3] = test system: BT474, MCF7, MCF7TamR tumors; conditions: mouse, in vivo

ALEXA FLUOR 647 labeled HERCEPTIN: HERCEPTIN (trastuzumab, Genentech) anti-HER2/neu antibody labeled with Alexa 647 fluorophore
Results Summary of repeat experiment [1]: Same results as above with | normal tissue signal after 17 hours [1]: slightly higher than baseline readings | signal in tumor vs normal tissue or pre-injection baseline in tumor [1]: significantly higher | time peak uptake reached after injection [1]: many hours | Signal intensity vs that previously seen in normal tissue of HERCEPTIN experiments [2]: Signal intensity was equal to that | distribution throughout the body by external probing [2]: probing showed it was fairly equally | signal in mammary tissue [2]: have been slightly higher in mammary | Peak uptake occurred ([2]; iv): Peak uptake occurred within minutes. | AUC in Her2 overexpressing lines vs Her2 negative line [3]: greater | AUC vs non-specific MOAb in Her2(+) lines [3]: greater | AUC vs non-specific MOAb in the MCF7 line [3]: equivalent | uptake in orthotopic site compared to ectopic site [3]: may be greater
